Our source for the IC50 values is ChEMBL document CHEMBL1140002, “Synthesis and biological evaluation of (R)-N-(diarylmethylthio/sulfinyl)ethyl/propyl-piperidine-3-carboxylic acid hydrochlorides as novel GABA uptake inhibitors” (Bioorg Med Chem Lett, 2007).

For the assay, the target named is Sodium- and chloride-dependent GABA transporter 1 (Mus musculus, UniProt P31648). As to the kind of experiment: Inhibition of [3H]GABA uptake at mouse GAT1 expressed in D8 cells. Type of assay: cell-based. Summed up: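 D8 cells in RPMI1640 with 10% FBS grown to near confluence (~60,000 cells/well), rinsed with PBS, pre-incubated 10 min at rt in HBSS. [3H]-GABA added to 151 nM final, incubated 20 min at rt. Stopped by aspirating HBSS, three rapid cold PBS washes, cells solubilized in 2 N NaOH; uptake quantified by liquid scintillation counting.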

For orientation: IC50 means the concentration that gives 50% inhibition. Read a low IC50 as greater potency. In turn, `O=C(O)[C@@H]1CCCNC1` [(R)-NIPECOTIC ACID] displayed a half-inhibitory concentration (IC50) of 456 µM.
